This series can be described thus: Semi-physiological population PK model (six-compartment NLMEM, NONMEM) informed by patient imaging data. Particulars: estimated, FOCE-I. It is filed as in vivo, human. On the procedure: In order to describe and compare differences in (population) PK between [^68Ga]Ga-HA-DOTATATE and [^177Lu]Lu-HA-DOTATATE, two semi-physiological nonlinear mixed-effects models (NLMEMs) with a similar model structure were developed. Using this approach, differences in population PK parameters between both radiopharmaceuticals were determined. First, a population PK model of [^68Ga]Ga-HA-DOTATATE was developed fully informed by a previously developed PBPK model. Subsequently, the model structure was applied to [^177Lu]Lu-HA-DOTATATE and parameters describing differences between both radiopharmaceuticals were estimated. Finally, both developed models were used to predict [^177Lu]Lu-HA-DOTATATE PK based on [^68Ga]Ga-HA-DOTATATE observations.
The first step of our approach was to develop a semi-physiological model for [^68Ga]Ga-HA-DOTATATE. Structural model development was informed based on a previously published PBPK model, where compartments were lumped based on their SSTR-expressing nature. […] Compartment five consisted of the lungs, pancreas, stomach, thyroid and liver. Structural model parameters were based on estimates from a previously published PBPK model. Organ volumes were fixed for all patients and derived from the ICRP Publication 89 adult human model. The tumor compartment volume was based on individual measured tumor volumes and consisted of the sum of volumes of all segmented tumors (based on).
The stochastic or statistical model accounted for inter-individual variability (IIV) and residual unexplained variability. For [^68Ga]Ga-HA-DOTATATE, IIV was added to uptake rate parameters. IIV was fixed based on assumed population variability, using information from ranges included in the previously developed PBPK model, assumed variability in uptake in organs and tumors based on clinical observations and estimated IIV in previously published population PK models for radiolabeled SSAs. IIV was modeled using an exponential distribution according to Eq. 2, while a proportional error model described the residual error according to Eq. 3.2 Pi=Ppop∗e^ηi 3 Cobs,ij=Cpred,ij∗(1+εp,ij) where Pi represents the individual PK parameter, Ppop represents the population PK parameter, and ηi represents the IIV effect for the ith individual with mean 0 and variance ω^2. Cobs represents the observed concentration and Cpred the predicted concentration for the ith individual and the jth measurement, and εp the proportional error with mean 0 and variance σ^2 for the ith individual and the jth measurement.
Factors known to affect PK parameters were added to the model a priori, since model development was based on fixed parameters rather than estimated based on data. […]

We go through 1 substance from publication PMC10449733, “Predicting [^177Lu]Lu-HA-DOTATATE kidney and tumor accumulation based on [^68Ga]Ga-HA-DOTATATE diagnostic imaging using semi-physiological population pharmacokinetic modeling” (EJNMMI Physics, 2023).

For the substance [^177Lu]Lu-HA-DOTATATE, the “k13 (kidney uptake rate) fold difference compared to [^68Ga]Ga-HA-DOTATATE” value (NET patients, RSE 15%) is 0.49 fold. The “k14 (tumor uptake rate) fold difference compared to [^68Ga]Ga-HA-DOTATATE” value (nine NET patients, RSE 14%) is listed as 1.43 fold. Under “nine NET patients, RSE 15%”, the “k12 (spleen uptake rate) fold difference compared to [^68Ga]Ga-HA-DOTATATE” value is 0.29 fold. Also, the “k40 (tumor degradation rate) fold difference compared to [^68Ga]Ga-HA-DOTATATE” value (nine NET patients, RSE 35%) is listed as 0.38 fold.
